Target: Tyrosine-protein kinase ABL1 (Homo sapiens, UniProt P00519)

Chains of the proteins cited; added tags and fusions are not shown.
UniProt P00519, whole entry: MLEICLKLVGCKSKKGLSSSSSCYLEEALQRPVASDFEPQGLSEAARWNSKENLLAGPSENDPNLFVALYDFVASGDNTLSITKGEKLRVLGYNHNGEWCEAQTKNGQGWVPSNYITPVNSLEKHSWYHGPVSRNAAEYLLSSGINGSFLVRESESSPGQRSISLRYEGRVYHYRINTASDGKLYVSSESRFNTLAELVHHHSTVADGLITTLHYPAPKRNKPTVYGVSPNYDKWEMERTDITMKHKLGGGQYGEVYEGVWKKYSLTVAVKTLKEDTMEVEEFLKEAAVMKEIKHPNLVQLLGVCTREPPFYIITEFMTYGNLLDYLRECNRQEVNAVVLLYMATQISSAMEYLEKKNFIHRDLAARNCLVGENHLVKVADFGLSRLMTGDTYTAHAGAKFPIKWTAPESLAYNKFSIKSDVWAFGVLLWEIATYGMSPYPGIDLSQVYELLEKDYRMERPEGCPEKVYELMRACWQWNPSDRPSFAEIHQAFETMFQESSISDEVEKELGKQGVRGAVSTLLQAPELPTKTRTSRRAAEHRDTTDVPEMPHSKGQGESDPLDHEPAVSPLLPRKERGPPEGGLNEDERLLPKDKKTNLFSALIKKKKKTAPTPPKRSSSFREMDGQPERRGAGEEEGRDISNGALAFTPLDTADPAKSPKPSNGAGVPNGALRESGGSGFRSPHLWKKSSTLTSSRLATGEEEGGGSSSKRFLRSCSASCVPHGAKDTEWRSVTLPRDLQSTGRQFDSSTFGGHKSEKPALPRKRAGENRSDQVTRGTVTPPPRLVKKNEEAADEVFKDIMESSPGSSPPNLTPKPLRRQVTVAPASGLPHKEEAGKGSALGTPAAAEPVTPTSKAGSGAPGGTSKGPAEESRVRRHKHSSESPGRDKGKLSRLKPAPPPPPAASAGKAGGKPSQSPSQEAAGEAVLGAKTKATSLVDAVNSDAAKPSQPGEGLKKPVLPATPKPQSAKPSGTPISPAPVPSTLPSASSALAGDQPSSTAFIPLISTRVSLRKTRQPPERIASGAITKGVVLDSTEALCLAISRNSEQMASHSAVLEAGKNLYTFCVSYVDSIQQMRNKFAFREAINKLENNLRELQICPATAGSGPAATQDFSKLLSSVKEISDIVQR

For `Cc1ccc(NC(=O)c2cccc(C(F)(F)F)c2)cc1C(=O)Nc1cncnc1`, which IC50 is on record?
Its IC50 is 240 nM.
